# scFv variants of Ab-14 (light chain) against a SARS-CoV-2 spike peptide

Values reported by Li et al. 2023, doi:10.1038/s41467-023-39022-2 (FLAb copy).

Binding partner: SARS-CoV-2 spike HR2 peptide, sequence PDVDLGDISGINAS.

Ab-14 is the parent antibody, in scFv form: VH, then a (GGGGS)3 linker, then VL. The heavy chain is unchanged in all variants.
VH: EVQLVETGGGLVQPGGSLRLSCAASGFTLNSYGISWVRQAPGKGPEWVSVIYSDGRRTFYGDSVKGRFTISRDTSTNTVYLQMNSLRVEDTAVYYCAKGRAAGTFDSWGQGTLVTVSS
VL: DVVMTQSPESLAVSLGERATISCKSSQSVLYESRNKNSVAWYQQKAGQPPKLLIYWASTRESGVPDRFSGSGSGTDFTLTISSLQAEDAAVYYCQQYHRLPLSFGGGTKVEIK

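Designed CDR sequences, proposed from the first random library and measured here. Their group label is 14L_Ctrl (Ctrl: baseline library sampled from a position-specific scoring matrix, with some repeated check sequences). The assay is AlphaSeq: two haploid yeast populations carry antibody and antigen on their surface. After mating in shaken culture at 30 °C for 16 h, diploids were selected and their barcode pairs sequenced. The ratio of observed to expected reads was calibrated, replicate by replicate, on BCL2-family standards whose Kd was known from biolayer interferometry. There are six technical replicates.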

Variants are written as CDR1, CDR2 and CDR3 of the light chain (limits as in the source). Parent: KSSQSVLYESRNKNSVA, WASTRES, QQYHRLPLS.
Scale: log10 of Kd in nM, estimated from mating counts; low values are strong binders.
An entry "ND" has no value in the source: the pair was not observed among the diploids in that replicate. This suggests poor binding but is not conclusive.
Three control strains display no target. For all light chain designs, 4% of the pairings with them gave a signal, with a median of 2.64 and one signal in twenty below 1.59, so weak values seen in few replicates may be background. The control count says in how many pairings with the empty strains this scFv gave a signal, with their mean in brackets.

CDR-L1,CDR-L2,CDR-L3,"log10 Kd, replicates",empty controls
KISQSVLYESNNKNSVA,AASTPES,QQYHRLPLS,1.31 0.81 1.34 2.19 1.54 1.33,0 of 18
KSSQSVLYESLNKNSVA,AASTRES,QQYHRLPLS,0.53 0.82 0.50 0.87 0.42 0.87,0 of 18
MSSQSLLYESRNKNSVA,WASTRES,QQYHILPLS,ND ND ND ND ND ND,0 of 18
KSSQSVLYESRNKNIVA,WASTRRG,QQYHRLPLS,2.35 ND 2.66 2.85 ND ND,0 of 18
TSSQSVLYESRNKNSVA,NASTRES,QQYHRLPLS,0.83 0.53 0.54 0.50 0.58 0.74,1 of 18 (2.94)
KSSPSVLLESRNKNSVA,WASTRES,QQYHHLPLS,ND ND ND ND ND ND,0 of 18
KSSQSVLYESSNYNSVA,AASTRES,QQYHRLPLS,0.78 0.58 0.69 0.54 0.52 0.78,1 of 18 (4.42)
KSSQSVLYESRRKNSVA,WASTRES,QQYHRLPLS,ND ND ND ND ND ND,0 of 18
KSSLSQLGESRNKNSVA,WASTRES,QQPHYLPLS,ND ND ND ND ND ND,0 of 18
KSSQSVLYESRNKNSVA,YASEREG,QQYHREPLS,ND ND ND ND ND 1.92,0 of 18
KSSWSSLYEESNKNSVA,WASTRES,VQYHRLPLS,ND ND ND ND ND ND,0 of 18
KLSQSVLYESRNKISVA,WASTRES,QQYHRLPLS,2.61 1.71 1.76 2.20 2.91 1.75,1 of 18 (2.60)
KSSQSDDYESRNKNSVA,AASTRES,QQYHRLPLS,0.62 0.37 0.28 0.30 0.27 0.47,1 of 18 (3.15)
KMSQSVLLESRNKHSVA,WASTRES,QQYHRLPLS,0.64 1.16 0.85 0.88 0.83 0.76,0 of 18
KSSQSVLYESRNKNSVA,QASERES,QQYHRLPLL,0.76 0.94 2.20 -0.26 0.79 0.42,0 of 18
KRSQSVLYESLNKNSVA,KASTRES,QQYHRLPLK,ND 1.80 ND ND 1.15 1.83,0 of 18
KSAQSWLYESFNLNSVA,WASTRES,QQYHGLPLS,ND ND ND ND ND ND,0 of 18
KSSQSVLYESTNKNSVA,NASTRED,QQYHRLPLS,0.31 0.49 0.12 0.18 0.69 0.46,2 of 18 (3.29)
KMSQSGLYESRNKTSVA,WASTRES,QQYHRLPLS,2.57 2.32 2.45 2.62 3.72 2.44,0 of 18
KSSQAVLYESRNKNSVA,WASTRES,QQYHRLPLT,ND ND ND ND ND ND,0 of 18
KLSQSVLYESRNKNSVA,NASTREP,QQYIRLPLS,-0.19 -0.51 -0.45 -0.38 -0.35 -0.18,0 of 18
KSSQSVLYESRNKNSVA,WASTRGS,QQYHRLPLS,ND ND ND ND ND ND,0 of 18
KVSQAVLYGSRNTNSVA,WASTRES,QQYHRLLLS,ND ND ND ND ND ND,0 of 18
IMSQSQLYESRMKNSVA,WASTRES,QQYHRLPLS,1.67 1.45 1.25 1.53 1.77 1.55,2 of 18 (3.27)
KSSQSVLYESRNKNSVA,WASTRES,QQYHRLELS,ND ND ND ND ND ND,0 of 18
KSSQSVLTESRNKNSVA,WQSTRES,QQYHRLPLN,ND ND ND ND ND ND,0 of 18
KLSQSNLYESRNKNSVA,WASTRED,QQYHRLPLS,0.53 0.66 0.13 0.53 0.65 1.02,1 of 18 (3.10)
KSSQKTLYEGRNKNSVA,WASTREQ,QQYHRLPLS,ND ND ND 1.60 ND ND,0 of 18
KQSMSVLYEERNKNSVA,WAKTRES,QQYHRLPLS,ND ND ND ND ND ND,1 of 18 (0.59)
KSSLSVLYETDQKNSVA,WASTRES,QQYHMLPLW,ND ND ND ND ND ND,0 of 18
KSMQSVLYESRNKNSVA,SASTRES,QQYHRLPLS,0.12 -0.07 -0.01 -0.04 -0.23 0.00,2 of 18 (3.51)
KSSQSVLYEDRNKNSVA,WASTREV,QQYHRLPLS,0.79 2.72 0.50 ND 1.80 ND,0 of 18
KSSQSVLYESRNKNSVA,SASTRYS,QQYHRLPLS,0.54 0.85 1.25 0.90 1.05 1.24,0 of 18
KSSQSVLYESRNENSVA,YASLRDS,QQYHRLPLS,1.68 1.67 1.99 1.45 1.71 1.37,1 of 18 (2.25)
KSSQSVGYESRNKNSVA,NASTRES,QQYHILPGS,ND ND ND ND ND ND,0 of 18
KISQSVVYESRNKNSVA,MASWRES,QQYHRLPLS,0.20 1.14 0.14 0.39 1.91 0.54,0 of 18
KSSQIVLYESRNKNSVA,DASTRES,QQYHRDPLS,ND ND 2.21 2.06 ND 3.78,0 of 18
KSSQKVLYESHNMNSVA,WANTRES,QQYHRLPLS,2.37 2.07 1.83 2.94 2.47 2.19,1 of 18 (2.48)
KPSGSVLYEARNKQSVA,WASTRLS,QQYHRLPLS,ND ND ND ND ND ND,1 of 18 (2.27)
KSSQSVLYESRNKNSVA,WAQTRES,QQYHGYPLS,ND ND 2.70 2.10 ND ND,0 of 18
MSSQSVLYESNNDNSVA,WASTRES,QQYHRLPLS,0.68 1.77 ND 1.82 ND ND,0 of 18
KSSQSVLYESRNANSVA,WASTREC,QQYHRLPLS,ND ND ND ND ND ND,0 of 18
SSTQSVLYESRNKNSVA,WASTRES,QQYHRLPLS,ND ND ND ND ND ND,1 of 18 (1.26)

Excerpt, the final 5 entries:

{"CDR-L1": "KPSGSVLYEARNKQSVA", "CDR-L2": "WASTRLS", "CDR-L3": "QQYHRLPLS", "log10 Kd, replicates": "ND ND ND ND ND ND", "empty controls": "1 of 18 (2.27)"}
{"CDR-L1": "KSSQSVLYESRNKNSVA", "CDR-L2": "WAQTRES", "CDR-L3": "QQYHGYPLS", "log10 Kd, replicates": "ND ND 2.70 2.10 ND ND", "empty controls": "0 of 18"}
{"CDR-L1": "MSSQSVLYESNNDNSVA", "CDR-L2": "WASTRES", "CDR-L3": "QQYHRLPLS", "log10 Kd, replicates": "0.68 1.77 ND 1.82 ND ND", "empty controls": "0 of 18"}
{"CDR-L1": "KSSQSVLYESRNANSVA", "CDR-L2": "WASTREC", "CDR-L3": "QQYHRLPLS", "log10 Kd, replicates": "ND ND ND ND ND ND", "empty controls": "0 of 18"}
{"CDR-L1": "SSTQSVLYESRNKNSVA", "CDR-L2": "WASTRES", "CDR-L3": "QQYHRLPLS", "log10 Kd, replicates": "ND ND ND ND ND ND", "empty controls": "1 of 18 (1.26)"}

A sequence measured in both rounds can read differently, since the two assays cover different ranges.
The parent sequence was in this pool as ten entries: three were never detected, three once, and four in most replicates, with averages from 0.34 to 2.37.
In the paper, a design with two or fewer of six values counts as a poor binder.